Values quoted from earlier work as cited in article PMC9434702 (Journal of medicinal chemistry, 2022).

Amino acid sequences for entries named in this document (tags omitted). Residues count along the entry.
UniProt Q14416, 19-872: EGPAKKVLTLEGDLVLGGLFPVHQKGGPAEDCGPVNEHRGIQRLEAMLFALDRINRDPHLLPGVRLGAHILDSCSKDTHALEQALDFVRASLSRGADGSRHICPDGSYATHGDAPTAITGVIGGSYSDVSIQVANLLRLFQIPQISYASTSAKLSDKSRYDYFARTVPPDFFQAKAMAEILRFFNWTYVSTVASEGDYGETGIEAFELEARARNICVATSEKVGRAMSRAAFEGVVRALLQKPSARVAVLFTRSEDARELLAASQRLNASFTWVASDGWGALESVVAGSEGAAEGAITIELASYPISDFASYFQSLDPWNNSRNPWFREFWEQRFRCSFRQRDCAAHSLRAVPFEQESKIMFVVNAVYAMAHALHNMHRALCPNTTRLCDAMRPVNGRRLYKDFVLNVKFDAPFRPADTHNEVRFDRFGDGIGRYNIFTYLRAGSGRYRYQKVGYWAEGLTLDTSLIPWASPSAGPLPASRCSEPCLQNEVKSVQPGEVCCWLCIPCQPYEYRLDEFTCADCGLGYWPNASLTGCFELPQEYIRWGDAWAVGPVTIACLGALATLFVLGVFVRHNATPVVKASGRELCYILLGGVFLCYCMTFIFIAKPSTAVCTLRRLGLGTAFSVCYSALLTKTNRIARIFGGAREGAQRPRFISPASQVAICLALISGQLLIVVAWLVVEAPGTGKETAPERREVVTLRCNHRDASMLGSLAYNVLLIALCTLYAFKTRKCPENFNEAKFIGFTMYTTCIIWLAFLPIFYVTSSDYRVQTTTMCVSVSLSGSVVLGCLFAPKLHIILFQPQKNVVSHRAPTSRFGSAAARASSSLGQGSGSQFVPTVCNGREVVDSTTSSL

Molecular target: mGluR2 (Homo sapiens, UniProt Q14416)
Conditions: mGluR2 NAM; cited from earlier work

In the case of COc1ccc(-c2cc(C(N)=O)nc3cc(CN4C(=O)CCC4=O)ccc23)c(F)c1 [compound 7], the IC50 is listed as 45 nM.
